Data from patent publication US10220005B2, “Synergistic therapies of cannabidiol with hypothermia for neuroprotection” (GW Research Limited, priority 2012, dated 2019).
Several values for one entry are separate records, joined by “and”; a condition that tells them apart may be missing. Equal entries are not always repeated.

What was measured:
[1] = test system: microglial cells; experiment: Piglet HI brain damage with normothermia or hypothermia, microglial cells (IBA-1) in parietal cortex; type: in vivo; settings: for Mean size of microglial cells after HI injury: HI injury + CBD 1 mg/kg i.v., 6 hours after HI
Method: (§1) Sedated and ventilated piglets (1-2 day-old) underwent HI brain damage (hypoxia-FiO2 10%+bilateral carotid artery compression for 30 min).
(§2) Normothermic (NT) piglets were maintained at 37-38° C. using a warmed air blanket.
(§3) Hypothermic (HT) piglets were cooled by a cool water mattress to 33-34° C.
(§4) Thirty min after HI piglets received via the i.v. route either vehicle (VEH) or CBD (1 mg/kg).
(§5) HI brains were obtained for histological studies quantifying the number of neurons
(§6) (Nissl), astrocytes (GFAP) and microglial cells (mGC) (IBA-1) in parietal cortex 6 hours after HI injury.
(§7) By dividing the area percentage of GFAP- or IBA-1-immunoreactive processes and cell bodies (ImageJ) by the number of cells, a mean size of astrocytes or mGC was obtained.
(§8) Similarly studied animals without HI insult served as controls (Sham, SHM).

[2] = test system: neurons; experiment: Piglet HI brain damage with normothermia or hypothermia, neurons (Nissl) in parietal cortex; type: in vivo; settings: for Percentage of necrotic neurons in the cortex, MEAN: HI injury + CBD 1 mg/kg i.v., 6 hours after HI
Method: as §1, §2, §3, §4, §5, §6, §8

[3] = test system: astrocytes; experiment: Piglet HI brain damage with normothermia or hypothermia, astrocytes (GFAP) in parietal cortex; type: in vivo; settings: CBD 1 mg/kg i.v.
Method: as §1, §2, §3, §4, §5, §6, §7, §8

[4] = test system: rat model of HI; experiment: Rat model of HI, magnetic resonance imaging of brain lesion; type: in vivo, Wistar rats; settings: rats, CBD 1 mg/kg s.c. single dose, 7 days after HI
Method: A rat model of HI was used as described by (Fernandez-Lopez et al., 2007). Briefly, an HI insult is induced in 7-10 day-old Wistar rats by electro-coagulating the left carotid artery under anaesthesia following by the exposure to 10% oxygen for 120 min.
After the end of HI, pups were treated with 0.1 mL s.c. of vehicle or CBD (1 mg/kg) in a single dose.
Sham operated pups without hypoxia served as controls, and were treated with vehicle or CBD as indicated. The pups were then returned to their dams.
Rats were then euthanized and the brain removed and stored in 4% paraforlmadehide. Magnetic resonance imaging was performed on the brains to evaluate the damaged area. In some rats, MRI was performed 7 days after HI.

## C=C(C)[C@@H]1CCC(C)=C[C@H]1c1c(O)cc(CCCCC)cc1O [CBD, cannabidiol]
[1]; CBD and hypothermia, versus hypothermic control (164)
  rise in mean size of microglial cells versus control: 12 pixels
[1]; Hypothermic (33-34° C.)
  Mean size of microglial cells after HI injury: 176 pixels
[1]; Hypothermic treatment, CBD 1 mg/kg i.v.
  number of microglial cells, vehicle treated versus CBD treated animals: no differences
[1]; Normothermic (37-38° C.)
  Mean size of microglial cells after HI injury: 127 pixels
[1]; Normothermic, CBD alone, versus normothermic control (102)
  rise in mean size of microglial cells versus control: 25 pixels
[2]; CBD plus hypothermia treated animals, p<0.05
  Neuronal protection: best
[2]; Hypothermic
  Percentage of necrotic neurons in the cortex, MEAN: 4.5% and 4.51%
[2]; Normothermic
  Percentage of necrotic neurons in the cortex, MEAN: 8.4% and 8.41%
[3]; particularly in CBD plus hypothermia
  astrocyte activity (increased processes equals an increased mean size): enhanced
[3]; particularly in the hypothermia treated animals
  HI-induced reduction in the number of astrocytes: prevented
[4]
  volume of lesion (MRI), HI+CBD versus HI+VEH: similar
